# Measured values: publication PMC10009755, “Discovery and Characterization of BAY-805, a Potent and Selective Inhibitor of Ubiquitin-Specific Protease USP21” (Journal of Medicinal Chemistry, 2023)
# Protein sequences, listed by entry. Tags and fused reporters are not part of them. Lines headed by an entry give the natural chain unless they say otherwise; changes in a name come on top.
# UniProt Q9P2H5: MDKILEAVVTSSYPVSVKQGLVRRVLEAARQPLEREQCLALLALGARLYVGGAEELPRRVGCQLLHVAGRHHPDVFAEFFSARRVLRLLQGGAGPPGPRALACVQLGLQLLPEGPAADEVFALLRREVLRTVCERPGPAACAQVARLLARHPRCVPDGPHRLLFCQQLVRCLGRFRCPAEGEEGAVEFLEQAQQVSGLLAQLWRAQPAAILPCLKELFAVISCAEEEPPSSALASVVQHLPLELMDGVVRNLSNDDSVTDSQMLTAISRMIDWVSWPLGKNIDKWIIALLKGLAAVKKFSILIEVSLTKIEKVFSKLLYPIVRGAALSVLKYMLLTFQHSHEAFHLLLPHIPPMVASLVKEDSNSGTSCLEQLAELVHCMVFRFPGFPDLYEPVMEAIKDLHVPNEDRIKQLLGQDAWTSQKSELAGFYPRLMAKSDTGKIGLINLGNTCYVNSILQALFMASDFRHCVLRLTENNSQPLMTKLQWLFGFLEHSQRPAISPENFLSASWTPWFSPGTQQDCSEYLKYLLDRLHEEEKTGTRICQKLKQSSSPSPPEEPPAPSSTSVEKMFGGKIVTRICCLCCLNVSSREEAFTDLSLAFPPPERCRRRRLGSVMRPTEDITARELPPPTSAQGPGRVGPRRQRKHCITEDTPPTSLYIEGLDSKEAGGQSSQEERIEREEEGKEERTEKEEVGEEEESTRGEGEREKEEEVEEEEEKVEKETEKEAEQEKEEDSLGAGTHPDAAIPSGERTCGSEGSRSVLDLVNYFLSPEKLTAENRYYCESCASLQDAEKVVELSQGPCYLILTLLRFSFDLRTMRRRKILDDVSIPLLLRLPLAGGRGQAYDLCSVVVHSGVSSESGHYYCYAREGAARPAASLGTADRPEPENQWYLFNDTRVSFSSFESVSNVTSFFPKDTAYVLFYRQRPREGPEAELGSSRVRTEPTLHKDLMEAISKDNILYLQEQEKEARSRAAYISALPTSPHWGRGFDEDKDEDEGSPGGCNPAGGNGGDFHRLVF
# UniProt O94921: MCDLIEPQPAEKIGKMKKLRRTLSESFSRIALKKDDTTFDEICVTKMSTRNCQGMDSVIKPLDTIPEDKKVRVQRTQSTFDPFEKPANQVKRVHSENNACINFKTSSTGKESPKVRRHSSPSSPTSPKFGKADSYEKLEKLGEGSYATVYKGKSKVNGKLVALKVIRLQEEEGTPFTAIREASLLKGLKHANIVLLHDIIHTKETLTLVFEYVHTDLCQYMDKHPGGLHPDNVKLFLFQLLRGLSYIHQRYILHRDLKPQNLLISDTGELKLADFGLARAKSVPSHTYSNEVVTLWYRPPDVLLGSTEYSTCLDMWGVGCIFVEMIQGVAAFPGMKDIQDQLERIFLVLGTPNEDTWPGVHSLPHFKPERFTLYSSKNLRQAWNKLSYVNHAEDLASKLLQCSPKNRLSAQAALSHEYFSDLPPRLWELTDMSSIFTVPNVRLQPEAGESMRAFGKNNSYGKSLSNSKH
# UniProt Q9HCP0: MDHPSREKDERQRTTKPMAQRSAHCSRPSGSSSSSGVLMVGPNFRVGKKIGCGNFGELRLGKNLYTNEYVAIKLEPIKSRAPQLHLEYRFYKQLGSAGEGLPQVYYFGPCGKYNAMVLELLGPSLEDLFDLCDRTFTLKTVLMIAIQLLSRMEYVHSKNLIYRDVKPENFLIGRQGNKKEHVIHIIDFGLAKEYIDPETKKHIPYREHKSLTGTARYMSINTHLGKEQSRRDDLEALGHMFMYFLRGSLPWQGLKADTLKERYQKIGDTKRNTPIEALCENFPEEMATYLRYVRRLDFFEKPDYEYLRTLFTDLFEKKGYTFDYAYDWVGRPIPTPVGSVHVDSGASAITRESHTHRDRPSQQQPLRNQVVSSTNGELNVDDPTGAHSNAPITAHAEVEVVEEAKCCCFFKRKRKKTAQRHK
# UniProt Q12851: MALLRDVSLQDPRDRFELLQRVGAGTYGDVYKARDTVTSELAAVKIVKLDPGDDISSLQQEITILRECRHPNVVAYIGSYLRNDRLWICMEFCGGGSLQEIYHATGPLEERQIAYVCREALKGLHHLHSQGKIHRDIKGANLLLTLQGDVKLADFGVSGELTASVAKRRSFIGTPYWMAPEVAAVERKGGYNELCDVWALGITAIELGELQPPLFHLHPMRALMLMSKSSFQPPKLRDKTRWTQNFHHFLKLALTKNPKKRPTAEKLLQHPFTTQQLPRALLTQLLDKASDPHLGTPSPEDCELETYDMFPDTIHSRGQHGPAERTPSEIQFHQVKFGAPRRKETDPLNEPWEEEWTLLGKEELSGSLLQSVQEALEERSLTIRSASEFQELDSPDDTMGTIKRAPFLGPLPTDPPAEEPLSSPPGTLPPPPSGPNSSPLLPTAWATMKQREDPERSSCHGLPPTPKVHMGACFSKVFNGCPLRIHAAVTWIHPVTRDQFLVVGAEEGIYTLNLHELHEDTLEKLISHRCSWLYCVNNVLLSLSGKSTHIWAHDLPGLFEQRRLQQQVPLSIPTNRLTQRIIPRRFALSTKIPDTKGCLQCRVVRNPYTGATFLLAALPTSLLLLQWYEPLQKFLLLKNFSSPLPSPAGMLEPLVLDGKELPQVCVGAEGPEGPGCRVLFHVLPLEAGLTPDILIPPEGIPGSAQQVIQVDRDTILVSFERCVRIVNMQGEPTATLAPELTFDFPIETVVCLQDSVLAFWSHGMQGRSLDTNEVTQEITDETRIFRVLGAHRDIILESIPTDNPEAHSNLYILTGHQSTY
# UniProt P49841: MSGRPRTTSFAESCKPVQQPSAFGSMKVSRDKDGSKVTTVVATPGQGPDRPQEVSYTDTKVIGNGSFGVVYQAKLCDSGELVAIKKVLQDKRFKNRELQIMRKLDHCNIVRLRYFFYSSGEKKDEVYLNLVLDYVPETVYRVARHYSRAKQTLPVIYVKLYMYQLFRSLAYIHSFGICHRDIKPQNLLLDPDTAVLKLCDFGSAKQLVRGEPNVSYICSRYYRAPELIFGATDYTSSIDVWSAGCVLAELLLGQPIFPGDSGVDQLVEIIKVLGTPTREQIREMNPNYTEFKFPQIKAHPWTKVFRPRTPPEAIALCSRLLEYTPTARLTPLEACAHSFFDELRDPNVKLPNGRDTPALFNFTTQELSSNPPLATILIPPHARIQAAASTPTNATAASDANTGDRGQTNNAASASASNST
# UniProt O15111: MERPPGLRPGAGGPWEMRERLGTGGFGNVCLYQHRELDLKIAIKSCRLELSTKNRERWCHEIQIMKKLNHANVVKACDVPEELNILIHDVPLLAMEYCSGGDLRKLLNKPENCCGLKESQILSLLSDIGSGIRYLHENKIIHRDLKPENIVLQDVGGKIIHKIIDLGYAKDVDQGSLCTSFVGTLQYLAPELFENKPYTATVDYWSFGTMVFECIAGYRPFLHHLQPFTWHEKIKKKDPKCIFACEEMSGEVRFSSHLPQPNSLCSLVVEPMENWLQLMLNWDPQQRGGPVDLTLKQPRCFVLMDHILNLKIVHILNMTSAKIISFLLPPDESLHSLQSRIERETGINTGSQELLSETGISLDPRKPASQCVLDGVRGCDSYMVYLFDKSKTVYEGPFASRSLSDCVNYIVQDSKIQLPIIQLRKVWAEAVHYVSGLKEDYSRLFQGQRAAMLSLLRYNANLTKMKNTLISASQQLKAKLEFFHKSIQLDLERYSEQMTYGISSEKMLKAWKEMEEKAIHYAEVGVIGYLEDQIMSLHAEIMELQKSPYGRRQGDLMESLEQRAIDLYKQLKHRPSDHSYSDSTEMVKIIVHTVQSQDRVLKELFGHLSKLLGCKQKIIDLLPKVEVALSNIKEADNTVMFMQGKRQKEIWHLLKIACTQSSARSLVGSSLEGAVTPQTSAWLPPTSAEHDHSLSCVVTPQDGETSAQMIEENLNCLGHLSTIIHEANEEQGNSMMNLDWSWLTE
# UniProt Q14164: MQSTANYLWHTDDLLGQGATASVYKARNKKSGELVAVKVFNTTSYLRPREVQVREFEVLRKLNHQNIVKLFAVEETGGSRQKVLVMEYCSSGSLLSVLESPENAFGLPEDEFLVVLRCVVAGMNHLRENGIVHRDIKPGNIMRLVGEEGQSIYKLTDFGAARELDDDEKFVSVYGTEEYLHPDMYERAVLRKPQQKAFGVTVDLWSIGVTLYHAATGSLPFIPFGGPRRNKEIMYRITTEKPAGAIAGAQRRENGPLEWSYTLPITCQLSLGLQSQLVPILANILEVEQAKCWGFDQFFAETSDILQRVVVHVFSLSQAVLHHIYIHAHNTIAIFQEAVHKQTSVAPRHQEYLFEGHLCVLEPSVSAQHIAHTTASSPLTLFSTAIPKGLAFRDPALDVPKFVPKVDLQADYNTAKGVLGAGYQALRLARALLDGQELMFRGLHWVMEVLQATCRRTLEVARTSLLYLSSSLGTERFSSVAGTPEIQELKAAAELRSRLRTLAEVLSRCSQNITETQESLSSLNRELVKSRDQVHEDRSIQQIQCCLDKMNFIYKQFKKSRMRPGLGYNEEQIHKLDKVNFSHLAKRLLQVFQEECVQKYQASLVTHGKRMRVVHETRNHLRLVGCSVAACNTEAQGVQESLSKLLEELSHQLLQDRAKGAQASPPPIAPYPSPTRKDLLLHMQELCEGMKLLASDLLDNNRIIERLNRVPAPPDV
# UniProt Q9H1R3: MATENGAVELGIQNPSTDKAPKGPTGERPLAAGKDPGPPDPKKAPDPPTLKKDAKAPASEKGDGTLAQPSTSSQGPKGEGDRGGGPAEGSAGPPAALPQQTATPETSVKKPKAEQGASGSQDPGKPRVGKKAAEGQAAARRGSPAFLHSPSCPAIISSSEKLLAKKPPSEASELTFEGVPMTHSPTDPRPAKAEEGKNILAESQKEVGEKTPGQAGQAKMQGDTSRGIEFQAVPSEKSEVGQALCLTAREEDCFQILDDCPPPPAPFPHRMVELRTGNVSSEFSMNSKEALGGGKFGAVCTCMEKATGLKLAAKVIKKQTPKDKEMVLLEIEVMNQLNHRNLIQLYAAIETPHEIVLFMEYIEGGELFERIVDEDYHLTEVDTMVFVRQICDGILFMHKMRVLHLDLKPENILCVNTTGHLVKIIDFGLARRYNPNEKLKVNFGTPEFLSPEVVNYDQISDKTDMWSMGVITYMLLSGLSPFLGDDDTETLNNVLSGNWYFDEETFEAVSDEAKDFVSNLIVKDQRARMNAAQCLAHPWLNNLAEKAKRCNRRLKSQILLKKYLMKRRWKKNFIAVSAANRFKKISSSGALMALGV
# UniProt Q5TCY1: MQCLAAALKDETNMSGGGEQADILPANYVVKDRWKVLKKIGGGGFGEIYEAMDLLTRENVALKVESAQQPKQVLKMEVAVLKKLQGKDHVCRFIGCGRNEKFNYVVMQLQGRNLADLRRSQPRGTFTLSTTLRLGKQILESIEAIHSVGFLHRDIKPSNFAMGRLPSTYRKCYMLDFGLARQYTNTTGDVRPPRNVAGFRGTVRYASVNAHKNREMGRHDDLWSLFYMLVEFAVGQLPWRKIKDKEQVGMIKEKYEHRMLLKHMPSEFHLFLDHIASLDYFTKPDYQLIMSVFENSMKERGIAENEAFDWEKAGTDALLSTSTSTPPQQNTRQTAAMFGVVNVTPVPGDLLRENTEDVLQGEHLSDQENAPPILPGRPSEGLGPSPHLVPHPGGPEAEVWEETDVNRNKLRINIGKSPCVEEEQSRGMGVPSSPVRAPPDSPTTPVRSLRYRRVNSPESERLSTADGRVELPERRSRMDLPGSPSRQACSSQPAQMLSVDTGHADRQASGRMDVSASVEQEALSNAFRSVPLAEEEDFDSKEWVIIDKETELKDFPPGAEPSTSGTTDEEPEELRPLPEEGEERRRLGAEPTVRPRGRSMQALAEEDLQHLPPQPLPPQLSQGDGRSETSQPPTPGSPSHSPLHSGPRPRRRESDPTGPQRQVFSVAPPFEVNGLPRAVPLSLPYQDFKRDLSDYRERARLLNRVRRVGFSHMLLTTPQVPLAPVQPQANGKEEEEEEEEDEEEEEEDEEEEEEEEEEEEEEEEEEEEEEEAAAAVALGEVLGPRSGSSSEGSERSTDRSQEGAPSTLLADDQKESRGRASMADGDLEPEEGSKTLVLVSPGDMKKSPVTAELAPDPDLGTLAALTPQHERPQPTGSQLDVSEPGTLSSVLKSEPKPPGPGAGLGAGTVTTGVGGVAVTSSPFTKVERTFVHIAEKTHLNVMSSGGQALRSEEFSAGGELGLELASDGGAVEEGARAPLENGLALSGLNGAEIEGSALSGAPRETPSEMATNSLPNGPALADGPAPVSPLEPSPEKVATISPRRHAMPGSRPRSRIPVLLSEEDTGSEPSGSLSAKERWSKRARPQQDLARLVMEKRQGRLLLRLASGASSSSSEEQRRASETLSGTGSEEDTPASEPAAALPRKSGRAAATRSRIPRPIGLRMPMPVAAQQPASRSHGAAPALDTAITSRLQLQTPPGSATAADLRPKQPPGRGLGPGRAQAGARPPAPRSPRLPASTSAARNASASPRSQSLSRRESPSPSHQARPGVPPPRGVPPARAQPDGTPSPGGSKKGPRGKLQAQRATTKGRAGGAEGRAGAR
# Experiments:
# Assay in all cases: biochemical
# USP8 = USP8 (Homo sapiens, UniProt P40818); conditions: read-out: Activity (% Control)
# USP17 = USP17 (Homo sapiens, UniProt Q6R6M4); conditions: read-out: Activity (% Control)
# USP35 = USP35 (Homo sapiens, UniProt Q9P2H5); conditions: read-out: Activity (% Control)
# Ataxin3 = Ataxin3 (Homo sapiens, UniProt P54252); conditions: read-out: Activity (% Control)
# Aldose Reductase = Aldose Reductase (Homo sapiens, UniProt P15121); conditions: read-out: % Inh.
# [1] = molecular target: Nitric Oxide Synthase, Neuronal (nNOS) (Homo sapiens, UniProt P29475); conditions: read-out: % Inh.
# [2] = molecular target: Peptidase, Angiotensin Converting Enzyme (Homo sapiens, UniProt P12821); conditions: read-out: % Inh.
# Adenosine A1 = Adenosine A1 (Homo sapiens, UniProt P30542); conditions: read-out: % Inh.
# Adenosine A3 = Adenosine A3 (Homo sapiens, UniProt P0DMS8); conditions: read-out: % Inh.
# Endothelin ETA = Endothelin ETA (Homo sapiens, UniProt P25101); conditions: read-out: % Inh.
# A-Raf(h) = A-Raf(h) (Homo sapiens, UniProt P10398)
# CaMKIV(h) = CaMKIV(h) (Homo sapiens, UniProt Q16566)
# CDK14/cyclinY(h) = CDK14/cyclinY(h) (Homo sapiens, UniProt O94921)
# CDK9/cyclin T1(h) = CDK9/cyclin T1(h) (Homo sapiens, UniProt P50750)
# CK1gamma1(h) = CK1gamma1(h) (Homo sapiens, UniProt Q9HCP0)
# CLK1(h) = CLK1(h) (Homo sapiens, UniProt P49759)
# CLK4(h) = CLK4(h) (Homo sapiens, UniProt Q9HAZ1)
# cSRC(h) = cSRC(h) (Homo sapiens, UniProt P12931)
# DCAMKL1(h) = DCAMKL1(h) (Homo sapiens, UniProt O15075)
# GCK (h) = GCK (h) (Homo sapiens, UniProt Q12851)
# GRK6(h) = GRK6(h) (Homo sapiens, UniProt P43250)
# GRK7(h) = GRK7(h) (Homo sapiens, UniProt Q8WTQ7)
# GSK3beta(h) = GSK3beta(h) (Homo sapiens, UniProt P49841)
# Hck(h) activated = Hck(h) activated (Homo sapiens, UniProt P08631)
# ICK(h) = ICK(h) (Homo sapiens, UniProt Q9UPZ9)
# IKKalpha(h) = IKKalpha(h) (Homo sapiens, UniProt O15111)
# IKKepsilon(h) = IKKepsilon(h) (Homo sapiens, UniProt Q14164)
# MARK1(h) = MARK1(h) (Homo sapiens, UniProt Q9P0L2)
# MKK6(h) = MKK6(h) (Homo sapiens, UniProt P52564)
# MSSK1(h) = MSSK1(h) (Homo sapiens, UniProt Q9UPE1)
# MYLK2(h) = MYLK2(h) (Homo sapiens, UniProt Q9H1R3)
# PAK5(h) = PAK5(h) (Homo sapiens, UniProt Q9P286)
# PEK(h) = PEK(h) (Homo sapiens, UniProt Q9NZJ5)
# PKR(h) = PKR(h) (Homo sapiens, UniProt P19525)
# ROCK-I(h) = ROCK-I(h) (Homo sapiens, UniProt Q13464)
# SAPK2b(h) = SAPK2b(h) (Homo sapiens, UniProt Q15759)
# SAPK3(h) = SAPK3(h) (Homo sapiens, UniProt P53778)
# TSSK2(h) = TSSK2(h) (Homo sapiens, UniProt Q96PF2)
# TTBK1(h) = TTBK1(h) (Homo sapiens, UniProt Q5TCY1)
# ULK2(h) = ULK2(h) (Homo sapiens, UniProt Q8IYT8)
# ZAP-70(h) = ZAP-70(h) (Homo sapiens, UniProt P43403)
smiles,measurement,setting,value
"CC(C)C[C@@H](NC(=O)C1(C(F)(F)F)CCCCC1)C(=O)Nc1nnc(Cc2ccc(C#N)cc2)s1 [Compound 21, N-[(1R)-1-[[5-[(4-Cyanophenyl)methyl]-1,3,4-thiadiazol-2-yl]carbamoyl]-3-methyl-butyl]-1-(trifluoromethyl)cyclohexanecarboxamide]",remaining activity at 10 µM,USP8,83%
same,remaining activity at 50 µM,USP8,71%
same,remaining activity at 1 µM,USP17,93%
same,remaining activity at 10 µM,USP17,97%
same,remaining activity at 1 µM,USP35,109%
same,remaining activity at 10 µM,USP35,105%
same,remaining activity at 1 µM,Ataxin3,109%
same,remaining activity at 10 µM,Ataxin3,106%
same,inhibition at 10 µM,Aldose Reductase,0%
same,inhibition at 10 µM,[1],-15%
same,inhibition at 10 µM,[2],-33%
same,inhibition at 10 µM,Adenosine A1,4%
same,inhibition at 10 µM,Adenosine A3,12%
same,inhibition at 10 µM,Endothelin ETA,-7%
same,inhibition at 10 µM,A-Raf(h),2.98%
same,inhibition at 10 µM,CaMKIV(h),-9.78%
same,inhibition at 10 µM,CDK14/cyclinY(h),0.61%
same,inhibition at 10 µM,CDK9/cyclin T1(h),-4.38%
same,inhibition at 10 µM,CK1gamma1(h),8.24%
same,inhibition at 10 µM,CLK1(h),8.38%
same,inhibition at 10 µM,CLK4(h),0.91%
same,inhibition at 10 µM,cSRC(h),17.8%
same,inhibition at 10 µM,DCAMKL1(h),6.25%
same,inhibition at 10 µM,GCK (h),11%
same,inhibition at 10 µM,GRK6(h),4.94%
same,inhibition at 10 µM,GRK7(h),-0.84%
same,inhibition at 10 µM,GSK3beta(h),6.52%
same,inhibition at 10 µM,Hck(h) activated,-0.71%
same,inhibition at 10 µM,ICK(h),29.7%
same,inhibition at 10 µM,IKKalpha(h),-10.4%
same,inhibition at 10 µM,IKKepsilon(h),-4.62%
same,inhibition at 10 µM,MARK1(h),12.6%
same,inhibition at 10 µM,MKK6(h),9.24%
same,inhibition at 10 µM,MSSK1(h),8.63%
same,inhibition at 10 µM,MYLK2(h),4.38%
same,inhibition at 10 µM,PAK5(h),8.53%
same,inhibition at 10 µM,PEK(h),-0.12%
same,inhibition at 10 µM,PKR(h),6.22%
same,inhibition at 10 µM,ROCK-I(h),3.01%
same,inhibition at 10 µM,SAPK2b(h),8.08%
same,inhibition at 10 µM,SAPK3(h),4.27%
same,inhibition at 10 µM,TSSK2(h),15.1%
same,inhibition at 10 µM,TTBK1(h),-12.8%
same,inhibition at 10 µM,ULK2(h),8.08%
same,inhibition at 10 µM,ZAP-70(h),6.36%
"CC(C)C[C@H](NC(=O)C1(C(F)(F)F)CCCCC1)C(=O)Nc1nnc(Cc2ccc(C#N)cc2)s1 [Compound 22, CC(C)C[C@H](NC(=O)C1(CCCCC1)C(F)(F)F)C(=O)Nc2nnc(Cc3ccc(cc3)C#N)s2]",remaining activity at 10 µM,USP8,77%
same,remaining activity at 50 µM,USP8,69%
same,remaining activity at 1 µM,USP17,90%
same,remaining activity at 10 µM,USP17,88%
same,remaining activity at 1 µM,USP35,109%
same,remaining activity at 10 µM,USP35,110%
same,remaining activity at 1 µM,Ataxin3,90%
same,remaining activity at 10 µM,Ataxin3,90%
same,inhibition at 10 µM,Aldose Reductase,2%
same,inhibition at 10 µM,[1],-5%
same,inhibition at 10 µM,[2],-28%
same,inhibition at 10 µM,Adenosine A1,-2%
same,inhibition at 10 µM,Adenosine A3,24%
same,inhibition at 10 µM,Endothelin ETA,7%
same,inhibition at 10 µM,A-Raf(h),7.65%
same,inhibition at 10 µM,CaMKIV(h),-9.6%
same,inhibition at 10 µM,CDK14/cyclinY(h),0.44%
same,inhibition at 10 µM,CDK9/cyclin T1(h),-1.35%
same,inhibition at 10 µM,CK1gamma1(h),-1.52%
same,inhibition at 10 µM,CLK1(h),1.92%
same,inhibition at 10 µM,CLK4(h),-7.17%
same,inhibition at 10 µM,cSRC(h),18%
same,inhibition at 10 µM,DCAMKL1(h),-0.87%
same,inhibition at 10 µM,GCK (h),8.31%
same,inhibition at 10 µM,GRK6(h),6.11%
same,inhibition at 10 µM,GRK7(h),-4.53%
same,inhibition at 10 µM,GSK3beta(h),3.68%
same,inhibition at 10 µM,Hck(h) activated,7.68%
same,inhibition at 10 µM,ICK(h),6.32%
same,inhibition at 10 µM,IKKalpha(h),-8.97%
same,inhibition at 10 µM,IKKepsilon(h),-10.6%
same,inhibition at 10 µM,MARK1(h),8.84%
same,inhibition at 10 µM,MKK6(h),-8.15%
same,inhibition at 10 µM,MSSK1(h),-2.83%
same,inhibition at 10 µM,MYLK2(h),2.95%
same,inhibition at 10 µM,PAK5(h),12.8%
same,inhibition at 10 µM,PEK(h),1.95%
same,inhibition at 10 µM,PKR(h),3.56%
same,inhibition at 10 µM,ROCK-I(h),15.2%
same,inhibition at 10 µM,SAPK2b(h),-6.41%
same,inhibition at 10 µM,SAPK3(h),-2.05%
same,inhibition at 10 µM,TSSK2(h),16.4%
same,inhibition at 10 µM,TTBK1(h),-12.3%
same,inhibition at 10 µM,ULK2(h),7.46%
same,inhibition at 10 µM,ZAP-70(h),-15.3%
